One test has as its system rats. As to conditions: literature statement, reference numbers not given; cited from earlier work.
The next test concerns the target T1, hM5R (Homo sapiens, UniProt P08912).
T1 construct: expressed in transfected cells; host or cells: CHO cell membranes
The experiment in a line: Radioligand competition binding, [3H]-scopolamine (N-methyl), CHO cell membranes, hM5R. The following applies: mean ± SD, n = 3; membranes from CHO cells transfected with hM5R; read-out: Receptor Ki M5.

Protein sequences, listed by entry. Tags and fused reporters are not part of them.
UniProt P08912, whole entry: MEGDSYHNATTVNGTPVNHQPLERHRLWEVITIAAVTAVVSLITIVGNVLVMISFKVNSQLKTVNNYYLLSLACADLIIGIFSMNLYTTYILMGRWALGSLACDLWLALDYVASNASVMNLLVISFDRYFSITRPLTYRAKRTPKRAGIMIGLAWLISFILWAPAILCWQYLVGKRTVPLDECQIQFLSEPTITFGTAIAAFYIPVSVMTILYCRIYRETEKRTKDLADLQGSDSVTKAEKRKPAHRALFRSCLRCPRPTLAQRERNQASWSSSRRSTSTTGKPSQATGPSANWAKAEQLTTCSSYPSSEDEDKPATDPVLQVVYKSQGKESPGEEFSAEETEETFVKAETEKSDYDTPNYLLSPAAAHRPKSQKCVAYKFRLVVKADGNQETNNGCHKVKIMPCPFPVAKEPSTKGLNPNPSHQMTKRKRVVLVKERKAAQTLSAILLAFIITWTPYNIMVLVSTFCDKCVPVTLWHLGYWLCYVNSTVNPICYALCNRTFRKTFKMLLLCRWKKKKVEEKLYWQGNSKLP
UniProt P20309, whole entry: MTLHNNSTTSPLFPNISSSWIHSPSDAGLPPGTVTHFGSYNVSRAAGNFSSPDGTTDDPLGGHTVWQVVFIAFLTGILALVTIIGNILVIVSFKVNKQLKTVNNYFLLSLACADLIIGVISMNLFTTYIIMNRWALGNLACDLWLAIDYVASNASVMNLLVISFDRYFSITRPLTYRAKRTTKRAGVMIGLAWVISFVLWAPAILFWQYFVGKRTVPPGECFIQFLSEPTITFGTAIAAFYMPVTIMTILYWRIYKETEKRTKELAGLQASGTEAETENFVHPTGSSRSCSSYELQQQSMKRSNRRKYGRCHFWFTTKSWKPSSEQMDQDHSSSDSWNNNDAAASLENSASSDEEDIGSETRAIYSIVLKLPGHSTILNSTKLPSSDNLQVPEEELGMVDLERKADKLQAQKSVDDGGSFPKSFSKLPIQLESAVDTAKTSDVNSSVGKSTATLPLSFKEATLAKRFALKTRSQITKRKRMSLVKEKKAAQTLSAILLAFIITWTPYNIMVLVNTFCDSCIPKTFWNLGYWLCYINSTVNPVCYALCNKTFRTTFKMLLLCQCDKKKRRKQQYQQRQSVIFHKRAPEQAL

The target of a further test is T2, hM3R (Homo sapiens, UniProt P20309).
T2 construct: expressed in transfected cells; host or cells: CHO cell membranes
The experiment in a line: Radioligand competition binding, [3H]-scopolamine (N-methyl), CHO cell membranes, hM3R. The following applies: mean ± SD, n = 3; membranes from CHO cells transfected with hM3R; read-out: Receptor Ki M3.

One may read the Ki as the dissociation constant of the complex between target and ligand, obtained from inhibition or displacement.

In the case of `Nc1ccccc1C(=O)N1CCC(N2CCC(Cc3ccc(S(=O)(=O)c4cccc(Cl)c4)cc3)CC2)CC1` [Compound 28], the in vivo efficacy entry in the test with rats is listed as “in vivo efficacy”. Further, the values for the Ki on hM5R and on hM3R were 119 ± 20 nM and 193 ± 23 nM, respectively.
